The experiment addresses MtEDS (Mycobacterium tuberculosis, UniProt P9WJ61). Particulars: read-out: apparent KM for HPP.

Amino acid sequences for entries named in this document (tags omitted). A change or cut given only in a name is not applied to a line headed by its entry.
UniProt P9WJ61: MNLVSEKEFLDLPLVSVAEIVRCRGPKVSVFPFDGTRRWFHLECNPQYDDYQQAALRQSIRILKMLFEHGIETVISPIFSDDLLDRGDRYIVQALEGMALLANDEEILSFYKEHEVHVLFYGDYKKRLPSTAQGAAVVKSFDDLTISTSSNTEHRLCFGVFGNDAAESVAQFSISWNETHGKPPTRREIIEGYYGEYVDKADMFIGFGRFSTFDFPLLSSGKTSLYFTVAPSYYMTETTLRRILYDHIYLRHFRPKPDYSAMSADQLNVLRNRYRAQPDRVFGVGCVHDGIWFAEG

One may read the Km as the substrate concentration at which the rate is half of its maximum. Take `C/C(=C\COP(=O)(O)OP(=O)(O)O)CC[C@@]1(C)[C@@H]2CCCC(C)(C)C2=CC[C@@H]1C` [HPP, halimadienyl diphosphate]: the Michaelis constant (Km) was 12 µM.

The values above are taken from patent US8309322B2, “Diterpene modulator of macrophage phagosomal maturation” (priority 2009, dated 2012).
